The values that follow come from publication PMC11742122, “Therapeutic Potential of Crocin and Nobiletin in a Mouse Model of Dry Eye Disease: Modulation of the Inflammatory Response and Protection of the Ocular Surface” (Iranian Journal of Pharmaceutical Research : IJPR, 2024).

For assay [1], the system named is corneal epithelial damage. Description: Corneal fluorescein staining in lacrimal gland excision (LGE) dry eye mouse model. Particulars: LGE mice; 3 µL three times daily for 28 days; crocin 34 µM, nobiletin 32.75 µM.
The test system of the next assay is corneal tissue. Nature of the assay: Hematoxylin and eosin staining of corneal tissue in LGE dry eye mouse model. As to conditions: LGE mice, 28 days post-operative, H&E; crocin 34 µM, nobiletin 32.75 µM, three times daily.

For `CC(/C=C/C=C(\C)C(=O)O[C@@H]1O[C@H](CO[C@@H]2O[C@H](CO)[C@@H](O)[C@H](O)[C@H]2O)[C@@H](O)[C@H](O)[C@H]1O)=C\C=C\C=C(C)\C=C\C=C(/C)C(=O)O[C@@H]1O[C@H](CO[C@@H]2O[C@H](CO)[C@@H](O)[C@H](O)[C@H]2O)[C@@H](O)[C@H](O)[C@H]1O` [Crocin], the “corneal epithelial damage (fluorescein staining score) versus betamethasone group” value in assay [1] is recorded as “no significant difference in the extent of corneal epithelial damage”. The “infiltration of inflammatory cells” value in the assay with corneal tissue is on record as “no infiltration of inflammatory cells was noted”.
As for `COc1ccc(-c2cc(=O)c3c(OC)c(OC)c(OC)c(OC)c3o2)cc1OC` [Nobiletin], the “corneal epithelial damage (fluorescein staining score) versus betamethasone group” value in assay [1] is reported as “no significant difference in the extent of corneal epithelial damage”. Besides, the “infiltration of inflammatory cells” value in the assay on corneal tissue was “infiltration of inflammatory cells”.
